The source of these data is publication PMC10967909, “Targeted Delivery of Abaloparatide to Spinal Fusion Site Accelerates Fusion Process in Rats” (Biomedicines, 2024).

The subject of data set [1] is L4–L5 bilateral posterolateral lumbar spinal fusion in Sprague Dawley rats. The data set can be described thus: Efficacy study: spinal fusion mineralization and fusion by μCT. The data set is classed as in vivo. The method, then: (§1) Once acidic oligopeptides spinal fusion-targeting was established, an efficacy study in both male and female skeletally-mature Sprague Dawley rats (n = 10/sex) (Envigo, Indianapolis, IN, USA) was performed using the same surgical procedure as before with a 5 × 7.5 mm RCM6 collagen sponge (Ace Surgical supplies, Brockton, MA, USA). A total of 60 rats were randomly assigned to one of three treatments: phosphate-buffered saline vehicle control, 10 μg BMP2 (BioVision, Milpitas, CA, USA), or 38 nmol/kg twice a week of acidic oligopeptide-targeted abaloparatide (Abalo46-D-Glu20). The initial dose of all drugs was administered on the sponge and then vehicle control and Abalo46-D-Glu20 were administered subcutaneously twice a week for 8 weeks. The spinal fusion mineralization was assessed using a Quantum GX μCT (Perkin Elmer, Waltham, MA, USA). Each rat was scanned weekly during weeks 3–8. The scans were blindly scored by two separate individuals. The density and total volume of the fusions was calculated from the μCT scans. At the end, the lumbars were removed and blindly manually palpated, as has been previously described. Data were analyzed in GraphPad Prism version 9, and significance was established by ANOVA. All animal experiments were performed in accordance with protocols approved by Purdue University’s Institutional Animal Care and Use Committee (IACUC).

For data set [2] the test system is unchanged. The data set can be described thus: Efficacy study: fusion by manual palpation of excised lumbars. The format is in vivo. Conditions: after 8 weeks, male rats, n = 10, blinded, saline 29%. The method, then:
as §1

For data set [3] the following is noted: discussion; ref not given; cited from earlier work. The method, then: Over 500,000 spinal fusions are performed annually in the United States at an average cost of ~USD 120,000/per procedure. With recovery times for full activity ranging from 3 to 12 months and failure rates varying from 10 to 36% [3, 4], there is clearly a need to explore alternative strategies for improving the procedure. Thus, prolonged postoperative immobilization increases the risk for comorbidities and reduces quality of life, while fusion failure imposes a need for additional surgical interventions and/or prolonged restriction of mobility. Moreover, current ther ... || A second question that logically arose is whether abaloparatide constituted the ideal payload for accelerating the fusion process. Although the PTH1R agonist, abaloparatide, has been well established as a bone anabolic agent, it is only clinically approved for treating osteoporosis. Most of abaloparatide’s applications have been limited to promoting systemic changes throughout the skeleton to reduce fracture risk.

For “BMP2: bone morphogenetic protein 2 (BioVision), 10 μg, topically applied standard of care”, the “average fusion score (out of 16)” value in data set [1] (8 weeks, male rats, mean of n = 10, two blinded reviewers, sum of four 0–4 scores, saline 6.2) is on record as 9.2. Further, the “fusion rate (completed osteointegration by micro CT)” value in data set [1] (8 weeks, male rats, n = 10, blinded, Ab46-D-Glu20 38 nmol/kg b.i.w. s.c., BMP2 10 μg on sponge, saline group 38%) came to 63%. Besides, in data set [1] (8 weeks, 38 nmol/kg b.i.w. s.c. vs BMP2 (10 μg on sponge) and saline), the “rate of mineralization / fusion process (μCT over time)” value was “proceed slower than with Ab46-D-Glu20”. For the same substance, the “response of female rats” value in data set [1] (female rats, collagen sponge, BMP2 10 μg vs Ab46-D-Glu20 38 nmol/kg b.i.w.) is recorded as “female rats responded more poorly to BMP2 than they did to Ab46-D-Glu20”. Moreover, in data set [2], the “joints fused by manual palpation” value is 66%. The “adverse effects of leakage into surrounding tissue” value in data set [3] was “leakage into the surrounding tissue, which leads to serious edema and ectopic mineralization”.
